# Binding of CDR-mutated scFvs to a peptide of the spike HR2 region

The measurements come from Engelhart et al. 2022 (doi:10.1038/s41597-022-01779-4) through the FLAb antibody collection.

Target peptide (SARS-CoV-2 spike, HR2 region): PDVDLGDISGINAS

The variants keep the light chain, the linker and the frameworks of Ab-91 (scFv order VL, the linker GGGGSGGGGSGGGGS, VH).
VL: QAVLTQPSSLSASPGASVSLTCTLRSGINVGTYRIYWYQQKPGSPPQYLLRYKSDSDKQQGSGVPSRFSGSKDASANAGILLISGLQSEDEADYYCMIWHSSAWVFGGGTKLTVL
VH: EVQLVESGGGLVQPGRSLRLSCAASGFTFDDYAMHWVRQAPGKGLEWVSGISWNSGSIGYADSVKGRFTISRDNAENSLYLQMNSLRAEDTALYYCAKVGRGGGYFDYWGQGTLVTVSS

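The parent was found by panning a naive human phage display library on the peptide. In library AAYL51, one, two or three CDR residues were substituted; doubles and triples were drawn at random. In AlphaSeq, yeast of one mating type display the scFv and yeast of the other type display the target. Binding brings cells together so that they mate, and sequencing counts the barcode pairs among the diploids. Scores were corrected for input abundance and mapped to Kd with protein pairs of known affinity run in the same pool. The assay was run in three technical replicates.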

Substitutions are numbered in sequence along the VH above, starting at 1 (not Kabat).
This list gathers variants with a substitution at D107 (VH, numbered from residue 1).
Numbers give log10(Kd / nM), so 0 is 1 nM and 3 is 1 µM. Smaller is tighter.
Averages over replicates are reported, and they cover detected replicates only.
"no signal" means that the variant was in the library but no mating with the target was seen in any replicate; the authors take this as a sign of poor binding, and no number exists.
As a blank, each scFv also met three strains without target: over library AAYL51, 21% of these pairings were detected, typically at 4.54 and seldom below 3.26. The control count says in how many pairings with the empty strains this scFv gave a signal.

* G56F G104F D107C: no signal (0 of 3 replicates; controls 1 of 9)
* G59K D107C: no signal (0 of 3 replicates; controls 0 of 9)
* S55R G103R D107H: 3.80 (1 of 3 replicates; controls 2 of 9)
* N54G Y60F D107T: 5.34 (3 of 3 replicates; controls 6 of 9)
* S63Y V64E D107V: no signal (0 of 3 replicates; controls 0 of 9)
* I51R G100I D107W: 4.48 (2 of 3 replicates; controls 0 of 9)
* F27W D31F D107C: no signal (0 of 3 replicates; controls 0 of 9)
* G26V F27K D107P: 5.15 (3 of 3 replicates; controls 6 of 9)
* A61M D62W D107I: no signal (0 of 3 replicates; controls 0 of 9)
* S55H Y60S D107N: 5.40 (3 of 3 replicates; controls 5 of 9)
* G26Q D31V D107H: 3.88 (1 of 3 replicates; controls 1 of 9)
* S57T G59N D107C: no signal (0 of 3 replicates; controls 0 of 9)
* H35C F106C D107P: 4.09 (1 of 3 replicates; controls 0 of 9)
* T28N G50M D107I: no signal (0 of 3 replicates; controls 0 of 9)
* I51K I58P D107N: no signal (0 of 3 replicates; controls 0 of 9)
* T28Y S63P D107L: 5.37 (3 of 3 replicates; controls 5 of 9)
* S52W S57C D107S: 4.81 (1 of 3 replicates; controls 1 of 9)
* F29M A61N D107E: 4.92 (3 of 3 replicates; controls 4 of 9)
* G26N G103H D107Q: no signal (0 of 3 replicates; controls 0 of 9)
* F27L I58T D107T: 3.64 (1 of 3 replicates; controls 1 of 9)
* R101K F106P D107K: 4.29 (1 of 3 replicates; controls 3 of 9)
* D30N I58E D107V: no signal (0 of 3 replicates; controls 2 of 9)
* T28N G59M D107I: 4.52 (2 of 3 replicates; controls 3 of 9)
* S63C F106D D107S: 0.69 (3 of 3 replicates; controls 0 of 9)
* F29G D30C D107L: 5.02 (1 of 3 replicates; controls 0 of 9)
* D30A W53F D107T: no signal (0 of 3 replicates; controls 0 of 9)
* T28G G104S D107I: 3.53 (3 of 3 replicates; controls 5 of 9)
* G59I Y60C D107P: 3.84 (2 of 3 replicates; controls 3 of 9)
* A61K G104W D107G: no signal (0 of 3 replicates; controls 1 of 9)
* V64F R101G D107H: no signal (0 of 3 replicates; controls 1 of 9)
* W53K Y105K D107R: 5.10 (3 of 3 replicates; controls 5 of 9)
* Y32I W53K D107M: no signal (0 of 3 replicates; controls 3 of 9)
* S63A D107V: 4.45 (2 of 3 replicates; controls 1 of 9)
* I58K V99P D107L: 5.26 (3 of 3 replicates; controls 4 of 9)
* F27G D62C D107G: no signal (0 of 3 replicates; controls 1 of 9)
* Y32G G104D D107R: no signal (0 of 3 replicates; controls 1 of 9)
* Y32R Y60M D107H: no signal (0 of 3 replicates; controls 2 of 9)
* I51P D62V D107P: no signal (0 of 3 replicates; controls 1 of 9)
* V99L D107Q: 3.02 (1 of 3 replicates; controls 2 of 9)
* S52R D107Y Y108F: no signal (0 of 3 replicates; controls 0 of 9)
* N54G S55M D107M: no signal (0 of 3 replicates; controls 0 of 9)
* Y32G S63M D107E: no signal (0 of 3 replicates; controls 0 of 9)
* A33M S57A D107I: 4.60 (1 of 3 replicates; controls 3 of 9)
* M34F N54Y D107L: 4.20 (1 of 3 replicates; controls 1 of 9)
* H35Y D107T Y108K: 4.25 (3 of 3 replicates; controls 3 of 9)
* Y60Q D107Q: no signal (0 of 3 replicates; controls 1 of 9)

Picked from the list: the 3 lowest averages where every replicate gave a value.

changes	mean log10 Kd (nM)	replicates with signal	empty controls
S63C F106D D107S	0.69	3 of 3	0 of 9
T28G G104S D107I	3.53	3 of 3	5 of 9
H35Y D107T Y108K	4.25	3 of 3	3 of 9

Parent in this assay: reference entry 1.86, copy in this library 0.88.